In ChEMBL document CHEMBL4004823, “Discovery of Potent and Selective Inhibitors for G9a-Like Protein (GLP) Lysine Methyltransferase” (J Med Chem, 2017):

Target: T1, Histone-lysine N-methyltransferase EHMT2 (Homo sapiens, UniProt Q96KQ7)
T1 sequence (Q96KQ7 whole entry): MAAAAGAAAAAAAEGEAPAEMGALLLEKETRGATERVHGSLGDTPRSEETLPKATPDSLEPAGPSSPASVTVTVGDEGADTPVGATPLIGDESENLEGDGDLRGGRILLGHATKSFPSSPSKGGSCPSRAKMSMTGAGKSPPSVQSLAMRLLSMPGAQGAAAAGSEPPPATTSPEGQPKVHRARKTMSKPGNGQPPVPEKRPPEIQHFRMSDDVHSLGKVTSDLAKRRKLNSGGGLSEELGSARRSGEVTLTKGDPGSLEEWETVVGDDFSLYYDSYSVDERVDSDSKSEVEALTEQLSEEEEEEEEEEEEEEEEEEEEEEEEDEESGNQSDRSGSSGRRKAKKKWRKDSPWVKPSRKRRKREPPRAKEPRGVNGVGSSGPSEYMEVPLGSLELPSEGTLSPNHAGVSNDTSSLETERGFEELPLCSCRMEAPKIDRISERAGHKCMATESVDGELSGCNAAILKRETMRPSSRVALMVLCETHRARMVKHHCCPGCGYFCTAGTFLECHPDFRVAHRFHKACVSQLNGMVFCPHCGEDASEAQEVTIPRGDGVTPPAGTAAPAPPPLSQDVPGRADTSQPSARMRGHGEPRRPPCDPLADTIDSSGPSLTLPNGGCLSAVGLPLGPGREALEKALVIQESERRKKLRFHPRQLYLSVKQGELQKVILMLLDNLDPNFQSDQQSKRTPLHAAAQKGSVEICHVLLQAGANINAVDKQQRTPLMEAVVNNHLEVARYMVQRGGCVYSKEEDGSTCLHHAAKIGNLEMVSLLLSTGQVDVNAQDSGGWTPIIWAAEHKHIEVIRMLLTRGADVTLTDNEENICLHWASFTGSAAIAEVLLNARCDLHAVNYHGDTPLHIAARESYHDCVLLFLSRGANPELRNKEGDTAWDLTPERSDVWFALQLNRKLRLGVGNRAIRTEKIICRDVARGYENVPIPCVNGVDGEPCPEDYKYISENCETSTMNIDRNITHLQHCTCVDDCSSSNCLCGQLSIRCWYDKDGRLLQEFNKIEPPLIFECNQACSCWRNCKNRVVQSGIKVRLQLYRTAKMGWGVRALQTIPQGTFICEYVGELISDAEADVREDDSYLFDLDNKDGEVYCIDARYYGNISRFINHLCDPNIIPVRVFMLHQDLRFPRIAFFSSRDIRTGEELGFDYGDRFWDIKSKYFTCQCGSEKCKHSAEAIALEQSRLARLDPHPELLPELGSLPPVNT
Assay: Inhibition of recombinant G9a catalytic SET domain (913 to 1193 residues) (unknown origin) expressed in Escherichia coli BL21 (DE3) codon plus RIL assessed as inhibition of methylation activity using biotin-labeled H3 (1 to 25 residues) as substrate and [3H]-SAM after 2 hrs by scintillation proximity assay

IC50: 9 nM
SMILES: COc1cc2nc(N3CCCN(C)CC3)nc(NC3CCN(C)CC3)c2cc1OC
